A short description of this data set: Single-dose bioavailability study of abiraterone propionate and decanoate, IV and IM, Beagle dogs (Example 5B). The conditions noted are these: for AUC0-28 / AUCINF / AUClast / CL/F / Cmax / Tmax / t1/2: plasma analyte = label, mean.
Setting [1] is: dogs (N = 3), Group 3: IM abiraterone propionate 197 mg/mL in 90% castor oil/10% benzyl alcohol, 41 mg/kg (table title prints 50 mg/kg).
Setting [2] is: dogs (N = 3), Group 4: IM abiraterone propionate 168 mg/mL in 90% corn oil/10% benzyl alcohol, 41 mg/kg (table title prints 50 mg/kg).
Setting [3] is: dogs (N = 6), IV 1 mg/kg abiraterone propionate (0.57 mg/mL in 40% HP-b-CD).

One may read the CL/F as the apparent clearance, not corrected for the fraction that reaches the circulation. Broadly, the Cmax is the maximum level reached in the sampled fluid or tissue. The term Tmax denotes the time from dosing to the highest level. Regarding Abiraterone propionate, under setting [1], the AUC0-28 amounted to 15.7 ng·days/mL, the AUCINF turned out to be 14.9 ng·days/mL, the AUClast was 13.0 ng·days/mL and the apparent clearance CL/F is 1980 mL/min/kg. For the same substance, under setting [1], the Cmax turned out to be 7.15 ng/mL, the Tmax stood at 2.66 h and the t1/2 amounted to 41 h. Also, under setting [2], the AUC0-28 was 28.6 ng·days/mL, the AUCINF stood at 29.0 ng·days/mL, the AUClast stood at 28.0 ng·days/mL and the apparent clearance CL/F stood at 1000 mL/min/kg. Also, under setting [2], the Cmax amounted to 31.6 ng/mL, the time of peak concentration (Tmax) came to 2.5 h and the t1/2 was 23.6 h. Further, under setting [3], the highest concentration (Cmax) was 27.1 ng/mL and the Tmax is recorded as 0.0833 h. For the same substance, under “dogs, IV 1 mg/kg propionate vs […] decanoate”, the “abiraterone Cmax, IV abiraterone propionate versus IV abiraterone decanoate” value was about 4 fold.

The values above are taken from patent publication US20240050447A1, “ABIRATERONE PRODRUGS” (Propella Therapeutics, Inc., priority 2020, published 2024).
